Experimental findings from patent publication US6573044B1, “Methods of using chemical libraries to search for new kinase inhibitors” (The Regents of the University of California, priority 1997, dated 2003) are described below.

By UniProt entry, the sequences of proteins in these tests, tags left out.
UniProt Q00535, whole entry, species assumed: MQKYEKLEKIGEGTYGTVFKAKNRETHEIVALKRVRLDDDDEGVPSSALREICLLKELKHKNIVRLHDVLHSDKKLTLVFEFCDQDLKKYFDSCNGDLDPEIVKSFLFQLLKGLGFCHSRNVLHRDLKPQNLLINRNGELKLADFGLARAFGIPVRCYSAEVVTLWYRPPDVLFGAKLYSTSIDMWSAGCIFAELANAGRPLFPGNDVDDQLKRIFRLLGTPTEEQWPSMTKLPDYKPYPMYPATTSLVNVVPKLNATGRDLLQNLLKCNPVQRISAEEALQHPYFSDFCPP

For one data set, the target named is cdk5/p25 (Homo sapiens, UniProt Q00535). Briefly: cdk5/p25 kinase inhibition. The data set is classed as biochemical. As to conditions: Table 1, additional kinases.

Regarding “2-(1R-isopropyl-2-hydroxyethyl)-6-(3-chloroanilino)-9-isopropylpurine [Purvalanol A]”, the “LC50 (lethal concentration) selectivity” value in the data set on colon cancer cell lines was “selectively inhibited colon cancer cell lines at micromolar concentrations”.

Consider `COc1ccc(CNc2nc(NC(CO)C(C)C)nc3c2ncn3C(C)C)cc1` (centres unmarked) [NG-35], for which the concentration for half-maximal inhibition (IC50) on cdk5/p25 is 15 nM.

As usually defined, the IC50 is the concentration needed to halve the response being measured.
